{
  "sequences": {"note": "Protein sequences, listed by entry. Tags and fused reporters are not part of them. Lines headed by an entry give the natural chain unless they say otherwise; changes in a name come on top.", "UniProt P48736": "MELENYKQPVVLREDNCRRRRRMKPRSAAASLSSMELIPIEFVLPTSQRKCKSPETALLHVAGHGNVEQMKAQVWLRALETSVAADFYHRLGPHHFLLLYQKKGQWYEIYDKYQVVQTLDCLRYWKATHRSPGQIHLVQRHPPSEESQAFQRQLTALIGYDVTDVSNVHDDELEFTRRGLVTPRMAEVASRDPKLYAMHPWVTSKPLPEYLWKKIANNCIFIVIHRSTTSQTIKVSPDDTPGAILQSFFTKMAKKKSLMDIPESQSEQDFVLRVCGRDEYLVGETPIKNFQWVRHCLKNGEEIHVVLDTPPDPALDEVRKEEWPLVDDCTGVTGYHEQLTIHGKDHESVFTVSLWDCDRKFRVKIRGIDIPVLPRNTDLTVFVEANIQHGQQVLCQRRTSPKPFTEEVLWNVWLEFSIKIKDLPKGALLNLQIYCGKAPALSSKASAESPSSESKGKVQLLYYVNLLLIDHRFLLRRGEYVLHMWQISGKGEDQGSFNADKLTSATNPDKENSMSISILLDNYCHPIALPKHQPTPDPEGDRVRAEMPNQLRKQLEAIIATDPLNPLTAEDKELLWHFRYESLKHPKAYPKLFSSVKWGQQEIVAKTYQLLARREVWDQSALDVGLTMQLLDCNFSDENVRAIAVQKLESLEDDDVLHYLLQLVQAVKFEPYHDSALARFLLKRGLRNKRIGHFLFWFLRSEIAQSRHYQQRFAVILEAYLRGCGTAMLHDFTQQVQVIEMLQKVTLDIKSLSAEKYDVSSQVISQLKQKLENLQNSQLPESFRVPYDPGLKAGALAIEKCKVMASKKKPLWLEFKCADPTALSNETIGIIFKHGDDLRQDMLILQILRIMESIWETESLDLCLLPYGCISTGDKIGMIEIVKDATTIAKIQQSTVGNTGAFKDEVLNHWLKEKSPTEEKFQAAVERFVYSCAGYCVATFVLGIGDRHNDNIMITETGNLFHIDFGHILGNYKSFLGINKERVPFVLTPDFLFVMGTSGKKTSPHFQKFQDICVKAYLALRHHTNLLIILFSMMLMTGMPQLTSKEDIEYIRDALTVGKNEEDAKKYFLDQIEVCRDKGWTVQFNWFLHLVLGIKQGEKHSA", "UniProt P42338": "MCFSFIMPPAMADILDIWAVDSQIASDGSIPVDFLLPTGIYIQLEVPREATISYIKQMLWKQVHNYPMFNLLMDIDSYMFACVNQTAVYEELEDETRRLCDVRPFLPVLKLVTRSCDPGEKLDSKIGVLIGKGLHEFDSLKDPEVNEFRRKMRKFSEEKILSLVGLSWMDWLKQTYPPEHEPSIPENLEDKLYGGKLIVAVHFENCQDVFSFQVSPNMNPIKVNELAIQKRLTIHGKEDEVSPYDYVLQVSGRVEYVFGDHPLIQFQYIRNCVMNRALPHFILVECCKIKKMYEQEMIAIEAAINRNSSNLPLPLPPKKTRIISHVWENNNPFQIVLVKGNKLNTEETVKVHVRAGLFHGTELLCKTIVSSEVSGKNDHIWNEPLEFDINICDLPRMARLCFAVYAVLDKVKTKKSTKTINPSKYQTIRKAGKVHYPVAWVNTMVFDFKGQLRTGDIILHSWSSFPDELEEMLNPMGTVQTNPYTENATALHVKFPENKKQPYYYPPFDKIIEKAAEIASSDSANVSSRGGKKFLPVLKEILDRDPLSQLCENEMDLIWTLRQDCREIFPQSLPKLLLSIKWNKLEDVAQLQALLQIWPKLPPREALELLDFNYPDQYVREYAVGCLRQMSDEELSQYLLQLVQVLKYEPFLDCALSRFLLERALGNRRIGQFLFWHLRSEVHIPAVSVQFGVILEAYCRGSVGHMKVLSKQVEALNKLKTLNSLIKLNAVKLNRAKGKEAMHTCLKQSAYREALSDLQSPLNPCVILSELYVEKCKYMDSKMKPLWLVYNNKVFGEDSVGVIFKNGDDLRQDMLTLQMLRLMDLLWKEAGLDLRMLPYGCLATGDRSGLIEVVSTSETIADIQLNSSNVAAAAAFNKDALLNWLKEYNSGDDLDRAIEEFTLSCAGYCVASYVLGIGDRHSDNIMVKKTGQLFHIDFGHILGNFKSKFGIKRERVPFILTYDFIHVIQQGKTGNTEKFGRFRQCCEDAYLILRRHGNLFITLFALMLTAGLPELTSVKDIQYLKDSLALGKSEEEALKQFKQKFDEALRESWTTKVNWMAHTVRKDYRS"},
  "source": "the Kinase Knowledgebase extract (Sharma et al. 2016)",
  "key": {"[1]": {"target": "PIK3CG (UniProt P48736)", "assay": "PIK3-gamma Kinase Inhibition"}, "[2]": {"target": "PIK3CB (UniProt P42338)", "assay": "PIK3-beta Kinase Inhibition"}},
  "data": [
    {"smiles": "O=c1cc(N2CCOCC2)oc2c(-c3ccccc3)cccc12", "values": [
      {"measurement": "IC50", "setting": "[1]", "result": 38, "unit": "µM"},
      {"measurement": "IC50", "setting": "[2]", "result": 2.9, "unit": "µM"}
    ]}
  ]
}
